Measured values from patent publication USRE47193E1, “Selectively substituted quinoline compounds” (EISAI R&D MANAGEMENT CO., LTD., priority 2013, dated 2019).

By UniProt entry, the sequences of proteins in these tests, tags left out. Residues count along the entry.
UniProt Q9NR97, 27-1041 limits assumed: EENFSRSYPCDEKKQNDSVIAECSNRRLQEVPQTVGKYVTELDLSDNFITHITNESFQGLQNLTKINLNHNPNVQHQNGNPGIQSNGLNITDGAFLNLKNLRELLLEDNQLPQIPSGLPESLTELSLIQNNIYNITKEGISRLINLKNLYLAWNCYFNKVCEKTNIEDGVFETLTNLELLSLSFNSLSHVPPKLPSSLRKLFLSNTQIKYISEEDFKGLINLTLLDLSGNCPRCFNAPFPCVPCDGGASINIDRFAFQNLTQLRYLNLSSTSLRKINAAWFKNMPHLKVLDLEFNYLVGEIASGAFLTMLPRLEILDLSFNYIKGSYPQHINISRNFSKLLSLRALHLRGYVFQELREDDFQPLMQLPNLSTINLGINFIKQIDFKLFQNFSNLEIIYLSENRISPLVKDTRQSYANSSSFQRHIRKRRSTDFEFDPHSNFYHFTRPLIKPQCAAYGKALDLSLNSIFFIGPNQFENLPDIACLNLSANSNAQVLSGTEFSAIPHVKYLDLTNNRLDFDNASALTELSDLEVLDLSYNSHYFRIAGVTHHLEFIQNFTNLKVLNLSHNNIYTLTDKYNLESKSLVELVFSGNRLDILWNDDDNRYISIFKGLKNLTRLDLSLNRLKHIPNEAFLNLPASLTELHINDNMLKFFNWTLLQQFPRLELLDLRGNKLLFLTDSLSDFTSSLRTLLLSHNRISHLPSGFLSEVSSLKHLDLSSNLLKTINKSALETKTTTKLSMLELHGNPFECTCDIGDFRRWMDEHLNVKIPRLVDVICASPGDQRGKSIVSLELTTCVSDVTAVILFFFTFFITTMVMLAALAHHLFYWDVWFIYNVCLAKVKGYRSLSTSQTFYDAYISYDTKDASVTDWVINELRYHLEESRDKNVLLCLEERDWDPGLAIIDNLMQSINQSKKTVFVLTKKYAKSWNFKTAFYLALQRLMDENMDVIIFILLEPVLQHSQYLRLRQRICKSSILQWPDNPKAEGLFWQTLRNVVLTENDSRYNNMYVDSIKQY

Experiments:
[1] = target: human TLR8 (Homo sapiens, UniProt Q9NR97); experiment: HEK-293 human TLR8 NF-kappaB luciferase reporter assay (CL097); assay type: cell-based; settings: read-out: HEK/hTLR8 IC50; HEK-293 assay format
Description: The comparative potency of ER-899742 versus hydroxychloroquine was further explored using cloned TLR7 and 8 in the HEK 293 cell line as described below in In Vitro Pharmacology. Effects on mouse TLR7 were also compared. Cells were stimulated overnight with TLR7/8 agonist CL097 at pre-determined ED70-80: 3 ug/ml for HEK-hTLR7, 1.5 ug/ml for HEK-mTLR7 and 12 ug/ml for HEK-hTLR8, before reading luminescence intensity. Three tests were performed and IC50 value was determined using Graphpad Prism 6 nonlinear regression curve fit.
HEK-293 cells (ATCC) were engineered to stably express a NF-kappaB transcription factor inducible E-selectin (ELAM-1) luciferase reporter derived from the plasmid pGL3 (Promega) containing base pairs −2241 bp to −254 bp from the promoter of the human E-selectin gene (Accession No. NM_000450). These cells were then subsequently engineered to stably and individually express human TLR4, TLR7 or TLR9 full-length ORF cDNAs. Human TLR4 cDNA (Accession No. NM_138554) was cloned into pcDNA 3.0 expression vector (Invitrogen). TLR4 transfected cells were also engineered to express human MD-2 co-receptor [MD-2 cDNA (Accession No. NM_015364) was cloned into the pEF-BOS vector] and were supplemented with 10 nM soluble CD14 (R&D Systems) in the media to optimize LPS responsiveness. Human TLR9 cDNA (Accession No. NM_017442) was cloned into the pBluescript II KS vector (Agilent). […]

[2] = tested on: Human TLR7/8; experiment: Human PBMC cell-based assay, TLR7/8 stimulus (RNA-Ig), cytokine ELISA; settings: read-out: Human PBMCs IC50; primary human PBMC assay, TLR7/8 potency; ligand not given
Description: Human PBMC Cell-Based Assay. Human peripheral blood mononuclear cells (PBMC) were isolated from freshly-drawn heparinized (10 USP units/ml, Hospira, Lakeforest, Ill.) healthy donor whole blood by density gradient (Histopaque® 1077, Sigma, Inc., St. Louis, Mo.). Briefly, 25 ml blood was diluted with 15 ml PBS (without Ca^2+, Mg^2+) in a 50 ml conical tube, and 12 ml Histopaque was underlaid using a spinal needle. Tubes were centrifuged for 45 minutes at 1200 rpm (350×g), and PBMC were collected from the buffy coat. Cells were then washed twice in PBS, and red blood cells were lysed by suspension in 5 ml ammonium chloride solution (1× Red Blood Cell Lysis Buffer, eBioscience) for 5 minutes at room temperature. […]
Antagonist compounds solubilized and serial diluted in 100% DMSO were added in triplicate to cells to yield a final concentration of 0.1% DMSO (v/v). […] Cell culture supernatants were collected, and levels of various human cytokines were assessed as indicated by standard ELISA procedure according to the manufacturer's recommended protocol (BD Biosciences, Inc., San Diego, Calif.). […]

| SMILES | IC50 [1] | IC50 [2] |
| --- | --- | --- |
| CCC1CN(c2ccc(C#N)c3ncccc23)CCO1 (stereo not shown) | 50 nM | 169 nM |
| C[C@@H]1CN(c2ccc(C#N)c3ncccc23)C[C@H](CNc2ccncc2)O1 | 8 nM | 5 nM |
